Data published in patent publication US7799799B2, “Indolizine derivatives, method for preparing same, and therapeutic compositions comprising same” (Sanofi-Aventis, priority 2005, dated 2010).

Assay: Solubility test at pH=4 from phosphate buffer pH 6 0.1M, by HPLC
Assay type: physicochemical
Conditions: second figure of the S/pH cell; pH noted for the solubility sample
Description: The results for solubility, S, and pH are shown in the table below and are expressed in mg/ml.
A phosphate buffer, pH6, 0.1M, was prepared by adding 6.15 ml of 0.1M Na2HPO4 to 43.85 ml of 0.1M NaH2PO4. The solution was made up to 100 ml with filtered water using a Millipore system (trade mark).
Reference (Test Product in a Concentration in which the Latter is Soluble and which Acts as an Internal Reference)
About 0.2 mg (in a boat) was weighed out exactly and diluted in 1 ml of H2O/CH3CN: (50:50), i.e. 0.2 mg/ml, then the sample was subjected to ultrasound for 5 minutes.
About 4 mg (in a boat) was weighed out exactly and diluted in 400 μl (i.e. 10 mg/ml) of pH6 phosphate buffer (0.1M), then the sample was subjected to ultrasound for 5 minutes.
The pH was noted and if the pH was below 4, 1 μl of NaOH 1N was added (from 1 μl in 1 μl) until the pH was more than 4, then the pH was noted again. The solution (0.45 μm) was filtered then if necessary diluted with the phosphate buffer pH6. (If the product re-precipitated after diluting, the diluted sample was ignored, the mother solution was used and the solubility was determined at a wavelength other than λmax, to avoid saturating the signal.
The solubility of the compound was then determined by HPLC under the following conditions:
Instrument: Agilent 1100 chromatograph
Column temperature: 30° C. […]

Structure (SMILES): CCCCc1cc2ccccn2c1C(=O)c1ccc(CCCN(C)C)cc1.Cl [compound 38, (2-butylindolizin-3-yl){4-[3-(dimethylamino)propyl]phenyl}methanone hydrochloride]
- pH (of the solubility sample): 6.7
